KCNH2 WT inh = inhibitors of human wildtype KCNH2 potassium channel; U2OS, BacMam KCNH2, thallium flux FluxOr; hits give low values; activity change, % at 1.84 µM; AID 720551; hit rate 0.37% among 340,000; Q12809;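 active = maximum activity change below -70%; inconclusive = maximum activity change between -70% and -50%; inactive = maximum activity change above -50%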
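U2OS cells were transduced with wild-type KCNH2 virus (2.03 x 10^8 / mL) for 4 h at room temperature, then cultured overnight at 37 C. Thallium flux was read with FluxOr dye. Rate constants were normalized to DMSO controls.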
Rango dissoc inh = inhibitors of RanGTP-induced Rango-importin beta complex dissociation. hit rate 0.071% among 340,000. Potency, µM (series often up to 46.1 µM). O95149+P62826. Biochemical FRET Rango-importin beta, RanGTP-induced dissociation; note: nearly all actives have a fitted effect of over 45% in size
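Compounds preincubate 5 min with complex of recombinant Rango and importin beta in PBS with 1 mM DTT. Ran (0.6 uM) loaded with 2 mM GTP plus 0.2 uM RCC1 starts dissociation; FRET is recorded 45 min later.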
KCNH2 3.1 block = blocks the human KCNH2 3.1 channel isoform | activity change, % (tested at about 1.8 µM) | U2OS KCNH2 3.1, thallium flux FluxOr; hits give low values | hit rate 0.95% among 340,000;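 active = maximum activity change below -70%; inconclusive = maximum activity change from -70% to -50%; inactive = maximum activity change above -50%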;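 note: thallium influx rate constant from kinetic fluorescence after stimulation buffer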
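U2OS cells transduced with KCNH2 3.1 mutant virus (1.77 x 10^8 /mL, 4 h), plated overnight at 37 C, loaded 45 min with FluxOr dye plus Red40 quencher. Thallium flux rate constant from kinetic reads after stimulation buffer, normalised to controls.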
Rango-impB inh = prevents formation of the Rango-importin beta complex; Potency, µM (top dose mostly 92.2 µM); hit rate 0.031% among 340,000; Rango CFP/YFP FRET sensor + importin beta, 45 min; note: nearly all actives have a fitted effect of over 15% in size
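Inhibition scored from the CFP 486 nm/YFP 530 nm FRET ratio 45 min after adding 0.125 microM importin beta to 50 nM Rango biosensor preincubated 5 min with compound (room temperature, PBS with DTT, Tween-20, BSA). No-importin wells as positive control.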
Numbers stand for hits; - = inactive; ? = inconclusive; . = not tested or not shown. Shown are actives, neighbours in structure and some others; about 1.3% of the full set was active somewhere. Unless noted, calls come from the whole dose curve.

SMILES | KCNH2 WT inh | Rango dissoc inh | KCNH2 3.1 block | Rango-impB inh
CCCCCCCCc1nc(SC(C)C(=O)O)n[nH]1 (centres undefined) | - | - | -105 | -
O=C(/C=C/c1ccccc1[N+](=O)[O-])OCC(=O)N1CCN(c2ccccc2)CC1 | - | . | - | .
O=C(CN1C(=O)NC2(CCOc3ccccc32)C1=O)NCCc1ccc(F)cc1 (centres undefined) | - | - | - | -
COc1ccc(C(=O)OCC(=O)NC(C)CCc2ccccc2)cc1OC (centres undefined) | -77 | - | - | -
O=C(CN1CCN(C(c2ccccc2)c2ccccc2)CC1)N1CCOCC1 | - | - | - | -
CCOc1ccccc1NC(=O)C(c1ccccc1)N1CCN(CC(=O)N2CCCC2)CC1 (centres undefined) | - | - | -72 | -
Cc1ccc(C)c(NC(=O)C(c2ccccc2)N2CCN(CC(=O)N3CCOCC3)CC2)c1 (centres undefined) | - | - | -89 | -
CCOc1ccccc1NC(=O)C(c1ccccc1)N1CCN(CC(=O)N2CCOCC2)CC1 (centres undefined) | - | - | -83 | -
CCOC(=O)N1CCN(C(=O)c2nn(C)c3c2CSc2ccccc2-3)CC1 | - | - | - | -
CC(=O)N1c2ccc(S(=O)(=O)NCC3CCC(C(=O)NCc4ccco4)CC3)cc2CC1C (centres undefined) | - | - | - | -
CN(C)CCCNC(=O)/C=C/c1ccc2c(c1)OCO2 | -74 | - | - | -
CCOC(=O)c1c(NC(=O)/C=C/c2ccc3c(c2)OCO3)sc(C)c1CC | - | ? | - | ?
COC(=O)c1c(NC(=O)/C=C/c2ccc3c(c2)OCO3)sc(C)c1C | -72 | - | - | -
COc1ccc(NC(=O)CC2C(=O)N(c3ccc(OC)cc3)C(=O)N2C(C)C)cc1 (centres undefined) | - | - | -82 | ?
CCOc1ccc(NC(=O)CC2C(=O)N(c3ccc(OC)cc3)C(=O)N2Cc2ccc(OC)cc2)cc1 (centres undefined) | - | - | - | -
CCCCN1/C(=C/c2ccc3ccccc3[n+]2CC)Sc2ccccc21 | - | - | - | 46µM
O=C(Nc1cccc(C(F)(F)F)c1)C1=CC=CN2CCS(=O)(=O)N=C12 | - | - | - | -
Cc1cc(C)cc(OCC(=O)NNC(=S)NC(=O)C2CC2)c1 | - | - | -70 | -
COc1ccccc1N(C)S(=O)(=O)c1ccc(Cl)c(C(=O)NC2=NCCS2)c1 | - | - | -76 | ?
CN(c1ccccc1)S(=O)(=O)c1ccc(Cl)c(C(=O)NC2=NCCS2)c1 | - | - | - | -
CNC(=O)Nc1ccccc1F | -241 | - | - | -
O=C(Nc1ccccc1F)Nc1ccccc1Br | . | - | - | ?
CSc1ccccc1NC(=O)COc1ccc(Cl)cc1C | - | - | - | -
CCOC(=O)c1c(C)oc(NC(=O)COc2ccc(Cl)cc2C)c1C#N | - | - | -75 | -
COc1ccc2c(C)cc(N3CCOCC3)nc2c1 | - | - | . | -
SMILES | KCNH2 WT inh | Rango dissoc inh | KCNH2 3.1 block | Rango-impB inh
COc1ccc(N2CCN(c3cc(C)c4ccc(O)cc4n3)CC2)cc1 | - | - | - | -
Cc1cc(N2CCOCC2)nc2cc(O)ccc12 | - | 16µM | - | ?
Cc1cc(N2CCN(c3ccccc3F)CC2)nc2cc(O)ccc12 | - | - | - | ?
Cc1cc(N2CCN(c3ccc(F)cc3)CC2)nc2cc(O)ccc12 | ? | - | -79 | ?
COc1ccc(N2CCN(c3cc(C)c4ccc(C)cc4n3)CC2)cc1 | -74 | - | -102 | -
Cc1cc(N2CCOCC2)nc2ccccc12 | - | - | - | -
COc1ccc2c(C)cc(N3CCN(c4ccc(F)cc4)CC3)nc2c1 | - | - | -91 | -
Cc1ccc(C)c(NC(=O)Nn2cnnc2)c1 | - | - | - | -
CCOc1ccc(S(=O)(=O)N(CC(=O)Nc2cccnc2)c2ccc(F)cc2)cc1 | - | - | - | -
CCOc1ccccc1NC(=S)NC(=O)C1CCCCC1 | - | - | - | -
CCOc1ccccc1NC(=O)C1CCCC1 | -84 | - | - | -
COc1ccc(-c2ccnc(SCC(=O)c3ccc(OC)c(OC)c3)n2)cc1 | - | - | -106 | -
CC1CCC(CN2C(Nc3ccccc3)=NC[C@@H]2Cc2ccccc2)CC1 (some centres undefined) | - | - | -91 | -
CC(C)C[C@H]1CN=C(Nc2ccccc2)N1CCCC1CCCC1 | -92 | - | - | -
CC(C)C[C@H]1CN=C(Nc2ccccc2)N1CC1CCC(C)CC1 (some centres undefined) | - | - | -83 | -
CC(C)C[C@H]1CN=C(Nc2ccccc2)N1CCCC1CCCCC1 | - | - | - | -
c1ccc(C[C@H]2CN=C(Nc3ccccc3)N2CC2CCC2)cc1 | - | - | - | -
CC(=O)Nc1ccc(NC(=O)C(C)Sc2nnc(C3CC3)n2-c2ccccc2)cc1 (centres undefined) | - | - | - | -
CCCn1c(=O)n(C)c(=O)c2c(SCC(=O)NCC(c3ccccc3)N(C)C)nc(CC(C)C)nc21 (centres undefined) | - | - | . | -
O=C(NC(=S)N1CCN(c2ccc([N+](=O)[O-])cc2Cl)CC1)c1ccco1 | - | - | -73 | -
COc1cccc2[nH]c3c(Cl)ncnc3c12 | -184 | - | - | -
COc1cccc2[nH]c3c(N4CCCCC4)ncnc3c12 | - | - | - | -
CCN(C(=O)COC(=O)c1cccc(S(=O)(=O)N2CCOCC2)c1)C1CCS(=O)(=O)C1 (centres undefined) | - | - | - | -
COc1ccc(NC(=O)C[C@H]2C(=O)N(c3ccccc3)C[C@@H]2CSC)cc1 | - | . | - | .
Cc1nc2ccccc2n1C1CCN(CC(=O)Nc2ccccc2Br)CC1 | ? | - | -91 | -
SMILES | KCNH2 WT inh | Rango dissoc inh | KCNH2 3.1 block | Rango-impB inh
CCn1cc(Cl)c(C(=O)Nc2cccc(CN3CCOCC3)c2)n1 | - | - | - | -
COc1ccc(C2CC(=O)N(CCCN(C)CCc3ccc(OC)c(OC)c3)C2)cc1 (centres undefined) | . | - | - | -
COc1ccc(CCN(C)CCCN2CC(c3ccccc3)CC2=O)cc1OC (centres undefined) | - | - | -88 | -
Cc1cc(C)c(C)c(S(=O)(=O)N2CCN(C(=O)c3cc(S(=O)(=O)N4CCOCC4)ccc3F)CC2)c1C | - | - | - | -
CCn1c(SCC(=O)Nc2ccccc2C(=O)OC)nnc1-c1cccc(C)c1 | - | - | -171 | -
CCn1c(SCC(=O)Nc2ccccc2F)nnc1-c1ccoc1C | - | - | -118 | -
Cc1cc(C)c(OCC(=O)NCC2COc3ccccc3O2)c(C)c1 (centres undefined) | - | - | - | -
COc1ccc2nc(SCC(=O)N3CCCCCC3)c(C#N)cc2c1 | - | - | -88 | ?
CC(=O)Nc1ccc(NS(=O)(=O)c2ccc3c(c2)oc(=O)n3C)cc1 | - | - | - | -
CC(C)(C)NC(=O)Cn1c(SCC(=O)NC2CC2)nc2ccccc21 | - | - | - | -

Screening data from PubChem.
